SMILES strings stand for the structures.

Series [1] relates to CYP3A. Kind of series: CYP3A catalytic activity (erythromycin N-demethylation) in possum liver microsomes. (In general: Liver microsomes are vesicles of endoplasmic reticulum, rich in cytochrome P450 enzymes.)
For series [2], the system named is CYP3A. The experiment in a line: CYP3A catalytic activity (erythromycin N-demethylation) in mouse liver microsomes.
Where [3] appears, read: initial screen n=1, compounds without reported IC50 at 1 µM.
[4] abbreviates: initial screen n=1, compounds without reported IC50 at 5 µM.

With `COc1cc(/C=C/c2ccc(OC)cc2OC)cc(OC)c1` [TMS], the “Percent control catalytic activity at estimated IC50” value was 105 percent control with CYP3A [1] (setting [3]) and 126 percent control with CYP3A [2] (setting [3]). The “Percent control catalytic activity at estimated 2-fold IC50” value in the series on CYP3A [1] (setting [4]) is 125 percent control; with CYP3A [2] (setting [4]) it was 140 percent control.
